The values below come from PubChem BioAssay AID588478 (ICCB-Longwood Screening Facility, Harvard Medical School, 2011).

Amino acid sequences for entries named in this document (tags omitted).
UniProt Q9Y5K5, whole entry: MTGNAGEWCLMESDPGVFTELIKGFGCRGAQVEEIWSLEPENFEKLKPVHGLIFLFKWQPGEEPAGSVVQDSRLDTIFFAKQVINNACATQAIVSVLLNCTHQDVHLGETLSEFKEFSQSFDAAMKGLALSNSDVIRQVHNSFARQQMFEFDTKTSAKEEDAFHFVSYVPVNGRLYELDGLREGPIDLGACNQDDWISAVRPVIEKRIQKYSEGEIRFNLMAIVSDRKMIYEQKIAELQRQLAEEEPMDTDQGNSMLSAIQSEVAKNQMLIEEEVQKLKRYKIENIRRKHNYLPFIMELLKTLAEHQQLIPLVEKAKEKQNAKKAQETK

Structures are written as SMILES. This is a selection; strong and weak results do not stand in their true shares. Some results for these compounds are left out of this collection, so the calls shown say nothing about other tests. Activity calls are given as the source filed them.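 Rule for the calls: active = mean inhibition over replicate wells above about 20% (limit read from the data); inactive = the rest.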

The target of this assay is Ubiquitin carboxyl-terminal hydrolase isozyme L5 (Homo sapiens) (UniProt Q9Y5K5). Kind of assay: proteasome-bound UCH37 DUB activity blockers – biochemical, Ub-AMC cleavage, fluorescence, primary screen (AID 588478).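 Note: 0% = compound-free wells with enzyme and 100% = wells lacking proteasome.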 The note with it: purified proteasome/UCH37, Ub-AMC cleavage fluorescence; active compounds read high; concentration not given here. An outline of the steps:
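Material: human UCH37 enzyme supplied as purified proteasome complex. Measure: % inhibition of Ub-AMC cleavage fluorescence. Medium: pH 7.4 Tris-HCl (50 mM) with ovalbumin, ATP-MgCl2, DTT. Times: 30 min preincubation with enzyme, 25 min cleavage at room temperature. Detection: AMC fluorescence intensity at 355/460 nm.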
Usually inhibition stands for the drop in the measured response relative to a control, in per cent. As to `CN(C)C1CCCC1OC(=O)C(O)(c1ccccc1)c1ccccc1` (stereo not drawn), the inhibition was inactive: 4.18%.

Turning to `CN(C)c1ccc(C(=O)NCC2(N(C)C)CCCCC2)cc1`, the inhibition is inactive: -0.136%.

Consider `Cc1ccccc1C(=O)NCC1(N2CCCCC2)CCCCC1`, for which the inhibition was inactive: 0.569%.

`CN(C)CCOC(=O)C(O)(c1ccccc1)C1CCCCC1` (stereo not drawn): the inhibition is inactive: -0.715%.

For `O=C(NCC1(N2CCCCC2)CCCCC1)c1cc(F)c(F)cc1Cl`, the inhibition was inactive: 4.33%.

As to `O=C(NCC1(N2CCCCC2)CCCCC1)c1cccc(Br)c1`, the inhibition is inactive: -0.802%.

For `Cc1cc(C(=O)NCC2(N3CCCCC3)CCCCC2)ccc1[N+](=O)[O-]`, the inhibition is inactive: 5.61%.

As to `CCN1CCCC(OC(=O)C2(O)c3ccccc3C=Cc3ccccc32)C1` (stereo not drawn), the inhibition is inactive: -0.364%.

Regarding `COc1ccc(C(=O)NCC2(N(C)C)CCCCC2)cc1`, the inhibition is inactive: 4.98%.

On to `O=C(NCC1(N2CCCCC2)CCCCC1)c1cc([N+](=O)[O-])ccc1Cl`, for which the inhibition is inactive: 5.25%.

`CN1[C@@H]2CC[C@H]1CC(OC(=O)C(O)(c1ccccc1)c1ccccc1)C2` (stereo partly drawn): the inhibition is inactive: 4.7%.

Regarding `COc1cc(SC)ccc1C(=O)NCC1(N(C)C)CCCCC1`, the inhibition is inactive: -2.02%.

As for `Cc1ccc(C(=O)NCC2(N3CCCCC3)CCCCC2)cc1`, the inhibition was inactive: 0.602%.

In the case of `O=C(OC1CN2CCC1CC2)C(CO)(c1ccccc1)c1ccccc1` (stereo not drawn), the inhibition was inactive: 0.0143%.

In the case of `COc1ccc(Br)c(C(=O)NCC2(N3CCCCC3)CCCCC2)c1`, the inhibition was inactive: 0.453%.

As for `CN(C)c1cccc(C(=O)NCC2(N(C)C)CCCCC2)c1`, the inhibition was inactive: -6.58%.

In the case of `O=C(OCCN1CCCC1)C(O)(c1ccccc1)c1ccccc1`, the inhibition was inactive: -1.08%.

On to `CC(C)Oc1ccc(C(=O)NCC2(N(C)C)CCCCC2)cc1`, for which the inhibition was inactive: 0.742%.

Turning to `CN(C)C1(CNC(=O)c2ccc(Br)cc2)CCCCC1`, the inhibition is inactive: 3.53%.

On to `COc1cc(C(=O)NCC2(N(C)C)CCCCC2)c([N+](=O)[O-])cc1OC`, for which the inhibition is inactive: 4.4%.

As to `COc1ccc(Cl)cc1C(=O)NCC1(N(C)C)CCCCC1`, the inhibition is inactive: 3.86%.

As to `COc1cccc(C(=O)NCC2(N3CCCCC3)CCCCC2)c1`, the inhibition is inactive: 2.21%.

Take `O=C(NCC1(N2CCCCC2)CCCCC1)c1cccc(Cl)c1`: the inhibition is inactive: 2.09%.
